± gives the uncertainty stated by the source.
B1: Tyrosine-protein kinase ABL1, residues 64 to 120; numbered along this chain, P00519 (parent)
chain: NLFVALYDFVASGDNTLSITKGEKLRVLGYNHNGEWCEAQTKNGQGWVPSNYITPVN

Variants of: B1
Assay: abundance fitness (aPCA) (normalised: wild type 0, dead -1); higher = more abundant; growth selection in yeast, the domain comes from the species named
Conditions: Homo sapiens

Variant	abundance fitness
NLFVALYDFVASGDNTLSITKGEKLRVLGYNHNGEWCETQTKNGQGWVPSNYITPVN [A39T]	-0.003 ± 0.13
NLFVALYDFVASGDNTLSITKGEKLRVLGYNHNGEWCEWQTKNGQGWVPSNYITPVN [A39W]	-0.83 ± 0.21
NLFVALYDFVASGDNTLSITKGEKLRVLGYNHNGEWCEIQTKNGQGWVPSNYITPVN [A39I]	-0.243 ± 0.19
NLFVALYDFVASGDNTLSITKGEKLRVLGYNHNGEWCESQTKNGQGWVPSNYITPVN [A39S]	-0.28 ± 0.093
NLFVALYDFVASGDNTLSITKGEKLRVLGYNHNGEWCEMQTKNGQGWVPSNYITPVN [A39M]	-0.402 ± 0.073
NLFVALYDFVASGDNTLSITKGEKLRVLGYNHNGEWCEVQTKNGQGWVPSNYITPVN [A39V]	0.024 ± 0.098
NLFVALYDFVASGDNTLSITKGEKLRVLGYNHNGEWCECQTKNGQGWVPSNYITPVN [A39C]	-0.435 ± 0.32
NLFVALYDFVASGDNTLSITKGEKLRVLGYNHNGEWCERQTKNGQGWVPSNYITPVN [A39R]	-0.875 ± 0.1
NLFVALYDFVASGDNTLSITKGEKLRVLGYNHNGEWCEQQTKNGQGWVPSNYITPVN [A39Q]	-1.1 ± 0.17
NLFVALYDFVASGDNTLSITKGEKLRVLGYNHNGEWCELQTKNGQGWVPSNYITPVN [A39L]	-0.11 ± 0.11
NLFVALYDFVASGDNTLSITKGEKLRVLGYNHNGEDCEAQTKNGQGWVPSNYITPVN [W36D]	-0.257 ± 0.31
NLFVALYDFVASGDNTLSITKGEKLRVLGYNHNGEMCEAQTKNGQGWVPSNYITPVN [W36M]	0.124 ± 0.091
NLFVALYDFVASGDNTLSITKGEKLRVLGYNHNGEACEAQTKNGQGWVPSNYITPVN [W36A]	-0.19 ± 0.077
NLFVALYDFVASGDNTLSITKGEKLRVLGYNHNGEICEAQTKNGQGWVPSNYITPVN [W36I]	-0.385 ± 0.18
NLFVALYDFVASGDNTLSITKGEKLRVLGYNHNGEPCEAQTKNGQGWVPSNYITPVN [W36P]	-1.07 ± 0.28
NLFVALYDFVASGDNTLSITKGEKLRVLGYNHNGEVCEAQTKNGQGWVPSNYITPVN [W36V]	-0.262 ± 0.093
NLFVALYDFVASGDNTLSITKGEKLRVLGYNHNGERCEAQTKNGQGWVPSNYITPVN [W36R]	-0.094 ± 0.068
NLFVALYDFVASGDNTLSITKGEKLRVLGYNHNGETCEAQTKNGQGWVPSNYITPVN [W36T]	-0.515 ± 0.12
NLFVALYDFVASGDNTLSITKGEKLRVLGYNHNGEQCEAQTKNGQGWVPSNYITPVN [W36Q]	-0.208 ± 0.2
NLFVALYDFVASGDNTLSITKGEKLRVLGYNHNGEGCEAQTKNGQGWVPSNYITPVN [W36G]	-0.784 ± 0.065
NLFVALYDFVASGDNTLSITKGEKLRVLGYNHNGESCEAQTKNGQGWVPSNYITPVN [W36S]	0.053 ± 0.094
NLFVALYDFVASGDNTLSITKGEKLRVLGYNHNGEECEAQTKNGQGWVPSNYITPVN [W36E]	-0.123 ± 0.13
NLFVALYDFVASGDNTLSITKGEKLRVLGYNHNGELCEAQTKNGQGWVPSNYITPVN [W36L]	-0.059 ± 0.079
NLFVALYDFVASGDNTLSITKGEKLRVLGYNHNGEYCEAQTKNGQGWVPSNYITPVN [W36Y]	0.212 ± 0.16

Variant	abundance fitness
NLFVALYDFVASGDNTLSITKGEKLRVLGYNHNGEFCEAQTKNGQGWVPSNYITPVN [W36F]	0.035 ± 0.13
NLFVALYDFVASGDNTLSITKGEKLRVLGYNHNGECCEAQTKNGQGWVPSNYITPVN [W36C]	-0.47 ± 0.13
NLFVALYDFVASGDNTLSITKGEKLRVLGYNHNGAWCEAQTKNGQGWVPSNYITPVN [E35A]	-0.191 ± 0.096
NLFVALYDFVASGDNTLSITKGEKLRVLGYNHNGKWCEAQTKNGQGWVPSNYITPVN [E35K]	-0.013 ± 0.078
NLFVALYDFVASGDNTLSITKGEKLRVLGYNHNGNWCEAQTKNGQGWVPSNYITPVN [E35N]	-0.496 ± 0.31
NLFVALYDFVASGDNTLSITKGEKLRVLGYNHNGVWCEAQTKNGQGWVPSNYITPVN [E35V]	-0.207 ± 0.047
NLFVALYDFVASGDNTLSITKGEKLRVLGYNHNGMWCEAQTKNGQGWVPSNYITPVN [E35M]	-0.256 ± 0.12
NLFVALYDFVASGDNTLSITKGEKLRVLGYNHNGLWCEAQTKNGQGWVPSNYITPVN [E35L]	-0.101 ± 0.095
NLFVALYDFVASGDNTLSITKGEKLRVLGYNHNGQWCEAQTKNGQGWVPSNYITPVN [E35Q]	-0.034 ± 0.084
NLFVALYDFVASGDNTLSITKGEKLRVLGYNHNGRWCEAQTKNGQGWVPSNYITPVN [E35R]	-0.117 ± 0.077
NLFVALYDFVASGDNTLSITKGEKLRVLGYNHNGIWCEAQTKNGQGWVPSNYITPVN [E35I]	0.327 ± 0.14
NLFVALYDFVASGDNTLSITKGEKLRVLGYNHNGYWCEAQTKNGQGWVPSNYITPVN [E35Y]	-0.516 ± 0.25
NLFVALYDFVASGDNTLSITKGEKLRVLGYNHNGHWCEAQTKNGQGWVPSNYITPVN [E35H]	-0.502 ± 0.28
NLFVALYDFVASGDNTLSITKGEKLRVLGYNHNGTWCEAQTKNGQGWVPSNYITPVN [E35T]	-0.113 ± 0.1
NLFVALYDFVASGDNTLSITKGEKLRVLGYNHNGGWCEAQTKNGQGWVPSNYITPVN [E35G]	-0.098 ± 0.073
NLFVALYDFVASGDNTLSITKGEKLRVLGYNHNGPWCEAQTKNGQGWVPSNYITPVN [E35P]	-0.182 ± 0.091
NLFVALYDFVASGDNTLSITKGEKLRVLGYNHNGEWCEADTKNGQGWVPSNYITPVN [Q40D]	-0.341 ± 0.15
NLFVALYDFVASGDNTLSITKGEKLRVLGYNHNGEWCEACTKNGQGWVPSNYITPVN [Q40C]	-0.086 ± 0.12
NLFVALYDFVASGDNTLSITKGEKLRVLGYNHNGEWCEAETKNGQGWVPSNYITPVN [Q40E]	-0.199 ± 0.066
NLFVALYDFVASGDNTLSITKGEKLRVLGYNHNGEWCEAATKNGQGWVPSNYITPVN [Q40A]	-0.018 ± 0.058
NLFVALYDFVASGDNTLSITKGEKLRVLGYNHNGEWCEAFTKNGQGWVPSNYITPVN [Q40F]	-0.108 ± 0.1
NLFVALYDFVASGDNTLSITKGEKLRVLGYNHNGEWCEAGTKNGQGWVPSNYITPVN [Q40G]	-0.213 ± 0.063
NLFVALYDFVASGDNTLSITKGEKLRVLGYNHNGEWCEAHTKNGQGWVPSNYITPVN [Q40H]	0.038 ± 0.11

From the Human Domainome abundance scans (Beltran et al. 2025)
